# scFv variants of Ab-14 (light chain) against a SARS-CoV-2 spike peptide

Source: Li et al. 2023 (doi:10.1038/s41467-023-39022-2), MIT Lincoln Laboratory and A-Alpha Bio; data file from the FLAb repository.

Antigen: PDVDLGDISGINAS, a 14-residue peptide of the SARS-CoV-2 spike HR2 region.

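The parent was found by panning a naive human phage display library on the peptide. This is the validation round: designs drawn from the data on random variants, tested in the same kind of assay. Their group label is 14L_GP_HC (GP: Gaussian process model; HC: hill climbing; a sequence that several methods proposed may carry one label only). The assay is AlphaSeq: two haploid yeast populations carry antibody and antigen on their surface. After mating in shaken culture at 30 °C for 16 h, diploids were selected and their barcode pairs sequenced. A regression on co-assayed BCL2-family reference pairs converts the normalised counts of each replicate to an apparent Kd. Each pool was mated in six replicate cultures.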

Ab-14 is the parent antibody, in scFv form: VH, then a (GGGGS)3 linker, then VL. The heavy chain is unchanged in all variants.
VH: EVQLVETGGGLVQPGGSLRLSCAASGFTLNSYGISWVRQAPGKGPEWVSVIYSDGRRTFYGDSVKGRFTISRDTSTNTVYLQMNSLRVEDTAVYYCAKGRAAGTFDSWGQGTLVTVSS
VL: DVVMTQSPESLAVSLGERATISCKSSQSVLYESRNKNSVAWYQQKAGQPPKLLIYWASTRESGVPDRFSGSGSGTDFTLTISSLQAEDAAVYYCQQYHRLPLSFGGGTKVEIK

Each variant is given by its three light chain CDRs, as the data file delimits them; those of the parent are KSSQSVLYESRNKNSVA, WASTRES, QQYHRLPLS. Numbers give log10(Kd / nM), so 0 is 1 nM and 3 is 1 µM. Smaller is tighter. "ND" means that the variant was in the library but no mating with the target was seen in that replicate; the authors take this as a sign of poor binding, and no number exists. The range of this assay differs from that of the first round, and the authors advise against merging the two. In the paper, a design with two or fewer of six values counts as a poor binder. Nonspecific signal, from three strains lacking the peptide, appeared in 4% of pairings of all light chain designs, centred on 2.64 (5% of these signals below 1.59); values are not corrected for it. Also given: how often the same scFv was detected with the empty control strains, with their mean in brackets. Of ten entries with the parent sequence, four were seen in most replicates (averages 0.34 to 2.37), three in one and three in none, so single entries are noisy.

| # | CDR-L1 | CDR-L2 | CDR-L3 | log10 Kd, replicates | signal with controls |
|---|---|---|---|---|---|
| 1 | KYSPSYLYESRNKNSVA | QASTRES | QQYHLLPLS | 0.01 0.17 -0.05 -0.23 0.07 0.05 | 0/18 |
| 2 | KSSASYLYESRNKNSVA | EASTRES | QQYHRLPLM | 0.58 0.21 0.31 0.59 0.44 0.83 | 2/18 (2.72) |
| 3 | KSSWSVLFESRNKNSVA | NASTRES | QQYHRLPLS | 0.29 0.44 0.26 0.43 0.50 0.75 | 0/18 |
| 4 | KSSMSVLYESRNKNSVA | GASTRES | QQYHRLPLS | 0.63 0.23 0.33 0.07 0.07 0.35 | 0/18 |
| 5 | KSSISQLGEQRNKNSVA | DISTRES | QQYHRLPLS | 0.68 0.19 0.32 0.24 0.72 0.45 | 3/18 (2.88) |
| 6 | KSSQSVAYESRNANSVA | DASTRES | QQYHRLPLS | -0.11 -0.05 -0.47 -0.24 -0.49 -0.02 | 0/18 |
| 7 | KSLQSVDYESRNKNSVA | HASTRED | QLYHRLPLS | 0.36 0.39 0.10 0.16 0.15 0.24 | 4/18 (2.83) |
| 8 | HSSPSVPYESRNKNSVA | NASTREE | QQYHRLPLS | -0.83 -1.24 -1.11 -1.37 -1.17 -1.19 | 0/18 |
| 9 | KLPNSTLYESRQKNSVA | NASTRES | QQYHRLPLS | 0.80 0.20 0.85 0.47 0.87 0.80 | 1/18 (1.22) |
| 10 | KSSCSYLEESRNKNSVA | EASTRES | QQYHRLPLS | 0.26 0.50 0.08 0.08 0.37 0.06 | 0/18 |
| 11 | KVLQSVVYEGRNKNSVA | NASTRED | QQYHRLPLS | 0.16 0.00 -0.11 -0.03 0.03 0.11 | 2/18 (2.88) |
| 12 | KSSWSVLYESGNKNSVA | HASTRMD | QQYHRLPLS | 0.43 0.39 0.58 0.45 0.40 0.71 | 1/18 (3.22) |
| 13 | KWSQSVLFESRNKNSVA | DASTRES | QQYHRLPLS | 0.01 0.21 0.06 -0.04 -0.25 0.11 | 2/18 (2.12) |
| 14 | KSSQSWLYESRNKNSVA | GASTRES | QAYHRLPLS | 0.62 0.97 0.94 0.63 1.74 1.24 | 1/18 (1.49) |
| 15 | KYYQSYLYESRNKNSVA | QASTRES | QQYHLLPLS | 0.99 0.59 0.60 0.75 0.71 0.79 | 0/18 |
| 16 | KSSQSVLNQSRNKNSVA | DASTRES | QQYHRLPLS | 0.63 0.51 0.52 0.24 0.44 0.70 | 2/18 (2.58) |
| 17 | KLRQSTLYESRNCNSVA | QASTRES | QQYHRLPLS | 1.25 1.40 ND 1.90 1.26 0.97 | 0/18 |
| 18 | KLQQSQEYESRNKNSVA | NASTRED | QQYHRLPLS | 0.07 -0.35 -0.15 -0.22 -0.30 0.29 | 0/18 |
| 19 | KSSQSWGYESRNKNSVA | HASTRES | QQYHRLPLS | 0.53 0.00 0.47 0.28 0.67 0.78 | 2/18 (3.51) |
| 20 | KVSQSVLYESRTKNSVA | NASTRES | QQAHRLPLS | 0.90 0.93 0.87 0.48 0.67 0.89 | 2/18 (2.28) |
| 21 | KSSISYLYSSPMKNSVA | EASTRES | QQYHRLPLS | 2.32 2.04 1.79 2.67 1.91 1.91 | 0/18 |
| 22 | KLRQSTLYESRNSNSVA | NASTRES | QQYHRLPLS | -0.10 -0.23 -0.30 -0.32 -0.48 0.14 | 0/18 |
| 23 | KSLWSVLYESANKNSVA | HASTRED | QQYHRLPLS | 1.34 ND ND ND ND ND | 0/18 |
| 24 | KSSISYLYESRNENSVA | EASTREE | QQYHRLPLS | 0.30 0.17 -0.38 0.23 0.31 0.41 | 2/18 (2.53) |
| 25 | KSSISWLYESRNKNSVA | EASTRES | QQYHRLPLM | 0.49 0.01 -0.12 -0.09 -0.05 0.03 | 0/18 |
| 26 | KSLQSVLYESRNKNSVA | QASTRED | QQYHQLPLS | 0.35 0.35 0.19 0.06 0.26 0.17 | 0/18 |
| 27 | KFSQSVGYESRTKNSVA | NASTRES | QQYHRLPLS | 0.36 0.47 0.22 0.22 0.21 0.49 | 1/18 (3.43) |
| 28 | KSSQSVLGEQRNKNSVA | DASTRES | QQYHRLPLS | 0.28 -0.02 0.03 0.24 0.05 0.20 | 0/18 |
| 29 | KLRQSTPYESRNQNSVA | WASTRES | QQYHRLPLS | 2.00 1.20 1.81 1.70 2.04 1.35 | 2/18 (2.36) |
| 30 | KSLQSQGYESRNKNSVA | HASTRED | QQYHRLPLS | 0.34 0.13 0.03 0.11 0.20 0.25 | 2/18 (3.41) |
| 31 | KSSQSWLYESRNKNSVA | GASMRES | QQYHRLPLM | 0.19 -0.26 -0.09 -0.39 -0.09 -0.13 | 1/18 (1.71) |
| 32 | KSSISELYESRNKNSVA | AASTRES | QQYHRLPLS | 0.65 0.31 0.40 0.35 0.42 0.40 | 2/18 (2.39) |
| 33 | KSSQSVPYESMNKNSVA | EASTRES | QQYHRLPLS | 0.35 0.11 0.05 -0.05 0.05 0.38 | 1/18 (2.45) |
| 34 | HSSPSVLYESRNENSVA | NASTRES | QQYHRLPLS | 0.27 -0.07 -0.06 0.10 0.39 -0.18 | 0/18 |
| 35 | HVSPSVAYESRNKNSVA | NASTRES | QQYHRLPLS | -0.34 -0.47 -0.47 -0.66 -0.63 -0.39 | 1/18 (4.98) |
| 36 | HVLQSVLYESRNKNSVA | HASTRED | QQYHQLPLS | 0.19 0.11 0.00 0.24 -0.17 0.07 | 1/18 (3.04) |

4 of these entries, quoted again:

CDR-L1,CDR-L2,CDR-L3,"log10 Kd, replicates",signal with controls
KSSISWLYESRNKNSVA,EASTRES,QQYHRLPLM,0.49 0.01 -0.12 -0.09 -0.05 0.03,0/18
KSSWSVLFESRNKNSVA,NASTRES,QQYHRLPLS,0.29 0.44 0.26 0.43 0.50 0.75,0/18
HVSPSVAYESRNKNSVA,NASTRES,QQYHRLPLS,-0.34 -0.47 -0.47 -0.66 -0.63 -0.39,1/18 (4.98)
KSLQSQGYESRNKNSVA,HASTRED,QQYHRLPLS,0.34 0.13 0.03 0.11 0.20 0.25,2/18 (3.41)